## Measured affinities in a library of Ab-95 light chain variants

All variants were tested on one target, the spike HR2 peptide PDVDLGDISGINAS (SARS-CoV-2).

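The starting antibody came from a phage panning campaign against this peptide. In library AAYL52, one, two or three CDR residues were substituted; doubles and triples were drawn at random. The scFvs were displayed on barcoded MATa yeast, the peptide on MATalpha yeast. After mating in shaken culture at 30 °C for 16 h, diploids were selected and their barcode pairs sequenced. Read counts were normalised to the haploid input and turned into Kd by a linear fit to BCL2-family pairs of known affinity, for each replicate. The assay was run in three technical replicates.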

Parent scFv Ab-95: VH joined to VL by the linker GGGGSGGGGSGGGGS. Changes lie in the light chain CDRs alone.
VH: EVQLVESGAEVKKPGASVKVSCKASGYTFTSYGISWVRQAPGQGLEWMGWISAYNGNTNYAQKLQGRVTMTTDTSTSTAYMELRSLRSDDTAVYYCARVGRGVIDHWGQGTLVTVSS
VL: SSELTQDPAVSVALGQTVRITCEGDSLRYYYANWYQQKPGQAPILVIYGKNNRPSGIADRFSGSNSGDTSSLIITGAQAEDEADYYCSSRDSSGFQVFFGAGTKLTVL

Each variant is given by its three light chain CDRs, as the data file delimits them; those of the parent are EGDSLRYYYAN, GKNNRPS, SSRDSSGFQVF. Affinities are written as log10 Kd with Kd in nM; a lower number is a better binder. The mean shown is taken over the replicates in which the pair was detected. "nd" means that the variant was in the library but no mating with the target was seen in that replicate; the authors take this as a sign of poor binding, and no number exists. In this assay the parent's reference entry averaged 2.31; its copy inside this library read 2.25.

CDR-L1	CDR-L2	CDR-L3	log10 Kd, replicates	mean, log10 nM	empty controls
EGDSLRYLYAS	GKNNRPS	VSRDSSGFQVF	3.81 / 4.83 / 4.37	4.34	3 of 9 (3.84)
EGDSLRYYYAW	GKNNRMS	SPRDSSGFQVF	nd / nd / nd	nd	0 of 9
EGDSLRTYYAN	GKNNRPV	SSRDSSGFIVF	2.53 / 1.75 / 2.20	2.16	4 of 9 (3.48)
EGDSLQNYYAN	GKNNRPS	SSRDSSGFQVQ	1.87 / 1.55 / 1.34	1.59	2 of 9 (3.26)
DGDSLRSYYAN	GKNNRPS	SSRDSSGFQVG	2.11 / 2.33 / 1.91	2.11	2 of 9 (4.00)
EGDSLRYYYAN	GWNNVPS	SSRDSVGFQVF	nd / nd / nd	nd	0 of 9
EWDSLRYYYAN	GKNNRPS	SSEDSSGFQDF	4.13 / 4.12 / 3.81	4.02	5 of 9 (4.26)
EGDSLRYYYAN	KKNNRPS	HSRDSSGFQVF	4.46 / 4.09 / 4.25	4.27	3 of 9 (3.94)
EGDSTRYYYAN	GKNNRPS	SSRDYSGIQVF	nd / nd / nd	nd	0 of 9
EGWSLRYYYAN	GKNNTGS	SSRDSSGFQVF	4.74 / 3.47 / nd	4.10	2 of 9 (4.41)
EGNSPRYYYAN	GKNNRPS	SSRDSDGFQVF	nd / 4.95 / 4.66	4.81	4 of 9 (4.26)
EGYSLRYYYAN	GKNDAPS	SSRDSSGFQVF	4.85 / 4.55 / nd	4.70	0 of 9
EGMSLRYYYAN	GKNNRPK	DSRDSSGFQVF	3.89 / nd / 3.63	3.76	3 of 9 (4.49)
EGDSKRIYYAN	GKNNRPS	SSCDSSGFQVF	nd / 4.27 / nd	4.27	4 of 9 (3.52)
EGDSLRYYYAN	GKNNRPS	SSRDRSGGQVQ	3.01 / 2.57 / 2.44	2.67	4 of 9 (3.45)
EGDSLRRYYAN	GKNNLPS	SSRDSLGFQVF	nd / nd / nd	nd	0 of 9
EGDSLRYYYAN	GKNNRPS	SNRDSSGFQVP	2.75 / 4.42 / nd	3.58	0 of 9
ECDSLVYYYAN	GKNNRPS	SFRDSSGFQVF	nd / nd / nd	nd	3 of 9 (3.92)
EGDSIRYYYAN	GKNNRPS	SVRQSSGFQVF	nd / nd / 3.57	3.57	2 of 9 (4.79)
EGDSLRYYYQN	GKNNRPS	SSRDCSQFQVF	3.75 / 3.61 / nd	3.68	1 of 9 (2.70)
EGDSNRYYYAN	GKNNRPI	SSRDGSGFQVF	3.03 / 3.97 / 4.67	3.89	1 of 9 (4.96)
EGDSTRPYYAN	GKNNRPS	SSRDSSGFQVW	2.76 / 2.28 / 1.95	2.33	0 of 9
EGLSLRYGYAN	GKNNRPS	SSRDMSGFQVF	1.06 / 0.98 / 0.42	0.82	1 of 9 (4.74)
EGPSLRYYYAN	GPNNRPS	SSRDSYGFQVF	2.84 / nd / nd	2.84	0 of 9
EGDSLRYYYAN	KKNNHPS	SSRDSSGFQTF	4.59 / 4.40 / nd	4.49	3 of 9 (3.51)
EHDSLRYYYAN	GKNNRPS	RSRDSSNFQVF	3.44 / 3.80 / 3.44	3.56	7 of 9 (4.53)
EGDLLRYYYAN	GKNNRPS	SSRFSSGFQVF	nd / 4.81 / 3.85	4.33	3 of 9 (4.44)
EGDSLRYYYAN	GKNKKPS	SSRDSSGFLVF	3.08 / 2.98 / 2.49	2.85	2 of 9 (4.10)
EGDSKIYYYAN	GKNNRPS	SSRDSSGFEVF	nd / 5.35 / nd	5.35	5 of 9 (3.96)
EGDSLRYYYAN	GMNNVPS	SSRQSSGFQVF	nd / 4.38 / nd	4.38	1 of 9 (3.66)
EGDVLRYYYAN	GANNRPS	SSRDSSGTQVF	3.26 / nd / nd	3.26	5 of 9 (3.89)
EGDSLRYYYSN	GKNNRPY	SSRDSIGFQVF	4.40 / 2.90 / nd	3.65	3 of 9 (3.96)
EGNSLRYYYAN	GKNKRPS	SSRDSSGGQVF	3.22 / 4.66 / nd	3.94	3 of 9 (3.15)
EGFSLRYYYAN	GKNNRAS	SSRDSSGFQGF	4.18 / nd / nd	4.18	1 of 9 (3.41)
EGDSLVYYYAN	FKNNRPS	SSRDSSGFQVF	nd / nd / nd	nd	2 of 9 (3.60)
EGDSLRYYYHN	GKNPRPS	SSRDSSGFQVF	nd / nd / nd	nd	2 of 9 (3.46)
EGDSLRSYYAN	NKNNCPS	SSRDSSGFQVF	4.60 / 4.26 / 3.57	4.14	5 of 9 (3.62)
EGDCLRYYYAN	YINNRPS	SSRDSSGFQVF	nd / nd / nd	nd	0 of 9

A selection of 3 entries from above:

CDR-L1	CDR-L2	CDR-L3	log10 Kd, replicates	mean, log10 nM	empty controls
EGDSLRYYYAN	GMNNVPS	SSRQSSGFQVF	nd / 4.38 / nd	4.38	1 of 9 (3.66)
EGDSLRYYYAW	GKNNRMS	SPRDSSGFQVF	nd / nd / nd	nd	0 of 9
EGDSLRYYYAN	GKNNRPS	SSRDRSGGQVQ	3.01 / 2.57 / 2.44	2.67	4 of 9 (3.45)

As a blank, each scFv also met three strains without target: over library AAYL52, 28% of these pairings were detected, typically at 3.91 and seldom below 2.90. Also given: how often the same scFv was detected with the empty control strains, with their mean in brackets.

From the AlphaSeq antibody data of Engelhart et al. 2022 (doi:10.1038/s41597-022-01779-4), copy in the FLAb collection.